# Assays:
# BM-induced mice = conditions: mouse, in vivo
# Description: Studies were also performed to determine if macrophages in pulmonary fibrotic lungs might be specifically targeted with folate-linked drugs in vivo. […] (The BM model is widely regarded to be helpful in terms of enabling mechanistic investigations relevant to fibrogenesis in an in vivo context.)
# More specifically, eight-week-old C57BL6 male mice from Charles River (average weight 22 g to 25 g) were housed under pathogen-free conditions at room temperature (22° C.) under a 12 hours light-dark cycle. Mice were placed on a folate deficient chow (Envigo Teklad Global Rat Food Pellets) for 1 week prior to the BM or PBS instillation. Fresh water and folate-deficient diet were freely available. All animal procedures were approved by the Purdue Animal Care and Use Committee in accordance with National Institute of Health guidelines.
# Thereafter, the mice were anesthetized with ketamine/xylazine and the necks of the mice were shaved using hair remover lotion and then sterilized with 70% alcohol. A small incision was made on the neck to visualize the trachea. […] Body weights were monitored every other day throughout the experiment. […]
# Bronchoalveolar lavage fluid (BALF) was then analyzed to determine how the targeted TLR7 agonist works. […]
# healthy mice = conditions: mouse, in vivo
smiles,measurement,setting,value
"CCCCc1nc2c(N)nc3ccccc3c2n1CC(C)(C)O [Compound 1A, 1-(4-Amino-2-butyl-1H-imidazo[4,5-c]quinolin-1-yl)-2-methylpropan-2-ol]",weight loss,BM-induced mice,> 25%
same,"systemic cytokine release (plasma IL-6, IFNα, TNFα)",healthy mice,stimulates systemic cytokine release
